The values below come from PMC7890977 (Alzheimer's Research & Therapy, 2021).

The experiment deals with T1, Amyloid-β peptide 1–42 (UniProt P05067 672-713).
T1 construct: Amyloid-β 1–42, cut product of the amyloid precursor protein; numbers count on: the Aβ peptide; also called Aβ_(1–42); Aβ; source: bought: rPeptide (MST); Anaspec (ThT aggregation assay); Bachem (TEM)
Description: MST; 20 nM NT647-labelled CERT incubated 20 min at room temperature in the dark with Aβ1–42 (3–100,000 nM) in PBS Tween20 (0.01%); Monolith NT.155, LED 40.51%, IR laser 80%. The following applies: both partners purified.

B1: Recombinant human CERTL (72 kDa, hCERTL) (natural protein, UniProt Q9Y5P4-1 1-624, looked up)
chain: MSDNQSWNSSGSEEDPETESGPPVERCGVLSKWTNYIHGWQDRWVVLKNNALSYYKSEDETEYGCRGSICLSKAVITPHDFDECRFDISVNDSVWYLRAQDPDHRQQWIDAIEQHKTESGYGSESSLRRHGSMVSLVSGASGYSATSTSSFKKGHSLREKLAEMETFRDILCRQVDTLQKYFDACADAVSKDELQRDKVVEDDEDDFPTTRSDGDFLHSTNGNKEKLFPHVTPKGINGIDFKGEAITFKATTAGILATLSHCIELMVKREDSWQKRLDKETEKKRRTEEAYKNAMTELKKKSHFGGPDYEEGPNSLINEEEFFDAVEAALDRQDKIEEQSQSEKVRLHWPTSLPSGDAFSSVGTHRFVQKPYSRSSSMSSIDLVSASDDVHRFSSQVEEMVQNHMTYSLQDVGGDANWQLVVEEGEMKVYRREVEENGIVLDPLKATHAVKGVTGHEVCNYFWNVDVRNDWETTIENFHVVETLADNAIIIYQTHKRVWPASQRDVLYLSVIRKIPALTENDPETWIVCNFSVDHDSAPLNNRCVRAKINVAMICQTLVSPPEGNQEISRDNILCKITYVANVNPGGWAPASVLRAVAKREYPKFLKRFTSYVQEKTAGKPILF
modifications: NT647 label (in the MST)
notes: also called recombinant CERTL; NT647 labeled CERT
In general, Kd refers to a measure of binding affinity in units of concentration. A lower Kd goes with higher affinity. Turning to B1, the dissociation constant (Kd) is 2500 ± 300 nM.
